Assay results from US9580423B2, “Bicyclic heterocycles as FGFR4 inhibitors” (Incyte Corporation, priority 2015, dated 2017).

Protein sequences, listed by entry. Tags and fused reporters are not part of them. Residues count along the entry.
UniProt P22455, 22-802: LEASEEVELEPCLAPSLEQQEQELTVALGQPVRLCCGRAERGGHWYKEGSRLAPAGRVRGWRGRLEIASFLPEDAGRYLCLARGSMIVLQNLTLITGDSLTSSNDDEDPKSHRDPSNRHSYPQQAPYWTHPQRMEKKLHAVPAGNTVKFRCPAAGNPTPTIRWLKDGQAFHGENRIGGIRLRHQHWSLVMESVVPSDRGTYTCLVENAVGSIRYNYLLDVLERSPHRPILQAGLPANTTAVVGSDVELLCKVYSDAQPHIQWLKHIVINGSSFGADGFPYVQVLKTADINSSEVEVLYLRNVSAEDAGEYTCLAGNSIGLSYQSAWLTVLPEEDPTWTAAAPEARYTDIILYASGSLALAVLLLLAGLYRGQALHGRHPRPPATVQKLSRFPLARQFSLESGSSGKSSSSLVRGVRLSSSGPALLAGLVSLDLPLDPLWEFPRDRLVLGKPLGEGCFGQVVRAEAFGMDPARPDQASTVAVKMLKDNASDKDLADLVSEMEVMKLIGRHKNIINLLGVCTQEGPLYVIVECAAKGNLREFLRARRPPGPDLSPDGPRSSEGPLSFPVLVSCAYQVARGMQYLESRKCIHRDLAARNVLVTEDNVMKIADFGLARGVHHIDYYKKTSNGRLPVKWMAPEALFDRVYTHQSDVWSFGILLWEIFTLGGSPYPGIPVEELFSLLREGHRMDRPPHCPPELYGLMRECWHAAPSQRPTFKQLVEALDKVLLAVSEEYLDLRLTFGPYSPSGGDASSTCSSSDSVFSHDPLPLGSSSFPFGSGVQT

Molecular target: FGFR4 (Homo sapiens (Human), UniProt P22455)
Experiment: FGFR Enzymatic Assay (FRET peptide phosphorylation), FGFR4
Settings: read-out: FGFR4 IC50

IC50 (pre-incubated for 5 to 10 minutes): < 10 nM
IC50 (pre-incubated for 4 hours): < 10 nM
SMILES: C=CC(=O)Nc1cc(-c2cc3c(cn2)CN(c2c(F)c(OC)cc(OC)c2F)C(=O)C32CC2)ccn1 [Example 4, N-(4-(2′-(2,6-difluoro-3,5-dimethoxyphenyl)-3′-oxo-2′,3′-dihydro-1′H-spiro[cyclopropane-1,4′-[2,7]naphthyridine]-6′-yl)pyridin-2-yl)acrylamide]

Like-named read-outs stand apart in the source and are kept apart here.
